These results are taken from patent US20170226139A1, “CRYSTALLINE SALTS OF (Z)-O-OCTADEC-9-EN-1-YL O,O-DIHYDROGEN PHOSPHOROTHIOATE” (priority 2013, published 2017).

The series is described as follows: Rx100 salt screening (solid formation, XRPD wet/dry, filterability, exposure to RH > 90%). The settings on record: for All solvents were evaporated to get a gel: label = base, nature/filterability of the solid. The procedure: We designed a complex and unconventional screening regime to screen for Rx100 crystalline salts. […] The screening regime is described as follows.
Rx100.FA in the form of a viscous liquid and eighteen counter ions were used as starting materials. These counter ions are listed and numbered in Table 4. The numbers will be used for grouping the resulting solids. The screening was performed in three stages.
Stage one (1) included screening 11 counter ions: sodium hydroxide, ammonium hydroxide, ethylenediamine, diethylamine, tromethamine (Tris), hydroxyethyl morpholine, benzathine, dimethylamino ethanol, L-Arginine, L-Lysine, L-Histidine. […] In stage 1, we performed three rounds of experiment.
In the first round of experiment, four (4) solvent systems, i.e., isopropyl alcohol (IPA), diethyl ether (DEE), IPA:water (a mixture at a volume ratio of 95:5) and tetrahydrofuran (THF), were used. Thus in this first round of screening, 44 individual base-acid reactions were conducted in 44 vials.
First, Rx100.FA and each of the bases were mixed in a vial. […] In each of the 44 vials, 211.1 μL of the prepared liquid, which was equivalent to about 35 mg of Rx100.FA, was first dispensed. Then, one equivalent (molar) of each of the 11 bases was dispensed in its corresponding vial. For example, the base sodium hydroxide was added to vials 1, 12, 23 and 34. Similarly, L-histidine was added to vials 11, 22, 33 and 44. Observations were recorded upon addition of the bases in to Rx100.FA.
Second, the solvent in each mixture was depleted. All vials containing the mixtures of Rx100.FA and each of the bases were left under moderate vacuum and nitrogen bleed at room temperature overnight to evaporate the solvent. The vials were then kept under full vacuum for about an hour to make sure the solvents (ethanol and water) are evaporated. Observations on formation of solid upon evaporation were recorded.
Third, solvents were added in each vial to induce solid formation. In each vial, a stir bar and one of the four selected solvents (each 5 volumes with respect to the Rx100.FA) were added. The vials were then capped. IPA was added to the first set of 11 vials (1-11), DEE added to the second set of 11 vials (12-22), IPA:water added to the third set of 11 vials (23-33), and THF added to the fourth set of 11 vials (34-44). The vials were left at room temperature while stirring for at least 5 hours. Observations were recorded.
The first set of XRPD analyses were recorded as “wet” samples. The solids were dried under vacuum for 1 hour and at room temperature followed by XRPD as “dry” sample. The dry solid was then exposed to relative humidity of more than 90% overnight followed by XRPD analysis. For XRPD naming, a number and a letter were used. The number refers to the counter ion and the letter refers to the chronological discovered XRPD pattern of that particular salt.
In the second round of experiment of stage one, another four (4) solvent systems, i.e., methanol (MeOH), tert-Butyl methyl ether (tBME), ethyl acetate and toluene, were used in the same 44 vials as used in the first round experiment. The solvents in all 44 vials from the first round were evaporated to dryness under vacuum and nitrogen bleed. The 4 new solvents were then added into the vials. Methanol was added to the first set of 11 vials (1-11), tBME added to the second set of 11 vials (12-22), Ethyl acetate added to the third set of 11 vials (23-33), and Toluene added to the fourth set of 11 vials (34-44). The same procedure as in the first round of experiment was followed for these new solvents and samples were taken for XRPD analysis.
In the third round of experiment, effect of base equivalence was assessed. […] After addition of the extra base, the previous solvent was evaporated and new solvents added.

The mark [1] stands for this setting: Rx100 salt formed with the named base, XRPD.

With Glycine, the Filterability result (Rx100 salt formed with the named base) is reported as “no”. Moreover, under setting [1], the Crystallinity result is reported as “no”. In addition, the Polymorphic behavior entry under setting [1] is on record as “Multiple patterns on XRPD”. Under “stage 3, 35 mg Rx100 free acid + base (label = base), 1.05 eq, L-lysine 2.00 eq”, the “Solid upon evaporation (Y/N)” value is “Gel”. In addition, the “All solvents were evaporated to get a gel” value (stage 3, 1.05 eq, L-lysine 2.00 eq, solvent MeOH:Water [9:1]) was “Greasy” and the “All solvents were evaporated to get a gel” value (stage 3, 1.05 eq, L-lysine 2.00 eq, solvent MeOH) is given as “Greasy”.
